Measured values published in patent US20250228794A1, “HOMOVANILLYL ALCOHOL (HVA), HVA ISOMER, METHODS OF MAKING COMPOSITIONS COMPRISING SUCH COMPOUNDS, AND METHODS USING SUCH COMPOUNDS” (SOCIETE DES PRODUITS NESTLE S.A., priority 2017, published 2025).

Assay: Urinary excretion of oleuropein metabolites after intake of olive leaf extract (pilot study, LC-MS)
Settings: for detection and identification in urine: LC-MS, MS2/MS3
Procedure: Specifically, urine samples were enzymatically treated to hydrolyze the glucuronide and sulfate moieties and release the free forms which were quantified. After sample purification by liquid-liquid extraction, the chromatographic separation was operated on an Acquity™ UPLC® BEH C18 column (1.7 μm, 2.1×150 mm). The mobile phase consisted of 1 mmol/L ammonium acetate buffer and methanol under gradient conditions at a flow-rate of 0.25 mL/min. Hydroxytyrosol, homovanillyl alcohol, and the homovanillyl alcohol isomer 3-hydroxy-4-methoxyphenethanol (alternatively named 3-hydroxy-4-methoxyphenethyl alcohol) were identified and quantified by high performance liquid chromatography-electrospray ionization tandem mass spectrometry (HPLC-ESI-MS/MS) and by comparison with their corresponding chemically synthesized standards.
The circulating concentration and kinetics of absorption of phenolic compounds and their metabolites in biological fluids (plasma or urine) depends on the matrix in which the compounds are ingested, the dose ingested, the time point of sample collection, the microflora of each individual, and the metabolism of each individual. To develop the most appropriate analytical approach for the measurement of OE absorption, a pilot study was conducted. Specifically, five subjects collected urine at baseline (before intake of the olive leaf extract) and between the intakes of two capsules of the olive leaf extract.
The analytical method (sample preparation, deconjugation conditions, chromatographic detection and separation) was first developed by spiking chemical standards which were commercially available in commercial urine. The deconjugation conditions were determined by using the conjugates available, hydroxytyrosol sulfate and homovanillyl alcohol glucuronide. The commercially available chemical standards were 3,4-Dihydroxybenzoic acid; 3,4-Dihydroxyphenylacetic acid; Homovanillic acid; Homovanillyl alcohol; Homovanillyl alcohol glucuronide (vanillyl methanol glucuronide); Hydroxytyrosol; Hydroxytyrosol sulfate (hydroxytyrosol sulfate triethylammonium salt); and Vanillic acid.
Briefly, the sample preparation consisted of a liquid-liquid extraction with ethyl acetate after a protein precipitation using acidified methanol.
Regarding chromatographic analysis, Oleuropein metabolites were separated by reversed-phase ultra-performance liquid chromatography using a C18-column Acquity UPLC BEH C18 1.7 μm, 2.1 mm×150 mm, (Waters AG, Switzerland). […]
Relative amount of the metabolites identified was first evaluated to clarify if their excretion in urine was increasing after intake of the olive leaf extract. […]

| Substance | Number of forms confirmed in urine | detection and identification in urine |
| --- | --- | --- |
| Hydroxytyrosol glucuronide | 2 | Presence & identity confirmed |
| Hydroxytyrosol sulfoglucuronide | 1 | Presence & identity confirmed |
